Source: patent publication US20160158382A1, “AGENT FOR THE TREATMENT AND PREVENTION OF SLEEP DISORDERS” (published 2016)
This is a selection: effects in other tests are not listed, and their absence says nothing.

Legend:
[1] = doses exceeding the recommended therapeutic dose of glycine 20-fold; cited from earlier work
[2] = tested on: mature outbred male white rats; assay: Sedative-hypnotic activity: EEG analysis of sleep-wake cycle stages in freely moving rats
Description: The study of the sedative-hypnotic effect of Almacin vs. comparator agents was conducted on 35 mature outbred male white rats weighing 230-250 g. The study was conducted in accordance with “Methodological Guidelines for Conducting a Study of Sedative-Hypnotic Activity of Pharmaceutical Substances” as set forth in “The Guidance Manual for Experimental (non-clinical) Studies of Novel Pharmaceutical Substances” [11].
The neurophysiological (electrophysiological) criteria of various stages of the sleep-wake cycle were analyzed. Electrodes were surgically implanted into the sensorimotor area of the cerebral cortex, dorsal hippocampus, and neck muscles of Nembutal-anesthetized rats (50 mg/kg, intramuscular) in an encephalometer, in accordance with the brain atlas, 5-7 days prior to the experiments on sleep monitoring. Electrobiological activity of the brain (electroencephalography, EEG) was recorded for unrestrained animals in the morning/daytime hours for at least 5 hrs. Sleep phases were determined experimentally by the electrical activity of the cerebral cortex and dorsal hippocampus, and by the electromyogram. In the analysis of sleep-wake cycles, the software recorded the following indicators: latent time from the beginning of registration to the appearance of the first episode of slow-wave and fast-wave (paradoxical, REM) sleep; total number of slow-wave and fast-wave sleep episodes and episodes of wakefulness; duration of all slow-wave and fast-wave sleep episodes and all episodes of wakefulness; percentage of all slow-wave and fast-wave sleep episodes and all episodes of wakefulness calculated by the ratio between the duration of said indicators and the duration of the total EEG record.
The study was conducted on 35 mature outbred male white rats weighing 230-250 g. The animals were received from the central nursery for laboratory animals “Stolbovaya”, Moscow Oblast. The animals were kept in accordance with the principles of Good Laboratory Practice for nonclinical studies in the Russian Federation. The animals were kept in a vivarium at 20-22° C., with the light-dark cycle of 12 hours of light and 12 hours of darkness, in plastic cages T/4A, 580×375×200 mm in size, stainless steel cover, and dust-free litter covered with wood shavings, 8 rats per cage. The animals were allowed free access to food and water and were fed a full ration of extruded pelletized feed and drinking water. The experiments were conducted during the first half of the day.
The study of the sedative-hypnotic activity of the agent of the present invention was conducted in accordance with “Methodological Guidelines for Conducting a Study of Sedative-Hypnotic Activity of Pharmaceutical Substances” as set forth in “The Guidance Manual for Experimental (non-clinical) Studies of Novel Pharmaceutical Substances” [11]. The neurophysiological (electrophysiological) criteria of various stages of the sleep-wake cycle were analyzed.
Electrodes were surgically implanted into Nembutal-anesthetized rats (50 mg/kg, intramuscular) 5-7 days prior to the experiments on sleep monitoring. Long-term electrodes for registration of electrical activity were implanted in an encephalometer into the sensorimotor area of the cortex, dorsal hippocampus, and neck muscles. Dorsal hippocampus coordinates were calculated in accordance with the brain atlas of the rats. Electrical activity of the brain and electromyograms of the neck muscles were recorded with nichrome wire electrodes with varnished insulation, 90 mcm in diameter for the hippocampus, and 120 mcm—for the sensorimotor area of the cortex and neck muscle implantation. The ends of the electrodes were soldered to silver-plated contacts 0.8-1 mm in diameter, which were affixed to the cranial bones with dental visfat-cement. During the experiment, the contacts were attached to lead wires connected to the electroencephalograph's control unit. […]

[3] = 5-hr. registration, agent 2 mg/kg, glycine 10 mg/kg, Donormyl 15 mg/kg

Q: Which “Side or toxic effects” value [1] does the source give for “glycine immobilized on detonation nanodiamond particles 2-10 nm in size” here?
A: did not cause any side or toxic effects

Q: And the “Decrease of fast-wave sleep onset latency compared to control” value ([2]; 2 mg/kg)?
A: 21%

Q: And the “Decrease of slow-wave sleep onset latency compared to control” value ([2]; 2 mg/kg)?
A: 26%

Q: And the “Increase in the number of fast-wave sleep episodes compared to control” value ([2]; 2 mg/kg, 5-hour registration period)?
A: 31%

Q: What about the “Increase in the total duration of fast-wave sleep compared to control” value ([2]; 2 mg/kg, 5-hr. registration) of the same substance?
A: 66%

Q: What about the “Reduction in the number of wakefulness episodes compared to control” value ([2]; 5-hour registration, agent 2 mg/kg, glycine 10 mg/kg, Donormyl 15 mg/kg) of the same substance?
A: 27%

Q: And the “Reduction of the duration of wakefulness compared to control” value ([2]; 5-hr. registration, agent 2 mg/kg, Donormyl 15 mg/kg)?
A: 26%

Q: What about the “Effect on the percentage of fast-wave sleep compared to control (in words)” value [2, 3] of the same substance?
A: statistically significant increase

Q: What about the “Effect on the percentage of wakefulness compared to control (in words)” value [2, 3] of the same substance?
A: decrease

Q: What about the “Theta-rhythm synchronization and modulation in the electrograms of sensorimotor cortex and dorsal hippocampus in the fast-wave (paradoxical) sleep phase” value ([2]; FIG. 2) of the same substance?
A: enhance the theta-rhythm synchronization and modulation

Q: And the Overall sedative-hypnotic effect ([2]; agent 2 mg/kg versus glycine and Donormyl 15 mg/kg)?
A: pronounced sedative-hypnotic effect

Q: And the Number of episodes, fast-wave sleep ([2]; intraperitoneal, N = 7, agent 2 mg/kg, glycine 10 mg/kg, Donormyl 15 mg/kg, 5-hour registration, control 14.7 ± 1.59)?
A: 19.4 ·

Q: And the Number of episodes, wakefulness ([2]; intraperitoneal, N = 7, agent 2 mg/kg, glycine 10 mg/kg, Donormyl 15 mg/kg, 5-hour registration, control 38.7 ± 1.46)?
A: 28.4 ·

Q: And the “Number of episodes, slow-wave sleep” value ([2]; intraperitoneal, N = 7, agent 2 mg/kg, glycine 10 mg/kg, Donormyl 15 mg/kg, 5-hour registration, control 39.3 ± 1.46)?
A: 33.9 ± 1.81

Q: And the “Ratio between the duration of fast-wave sleep and the duration of total recording period” value ([2]; intraperitoneal, N = 7, agent 2 mg/kg, glycine 10 mg/kg, Donormyl 15 mg/kg, control 4.9 ± 0.78)?
A: 8.8 ± 1.25 %

Q: What about the “Duration, fast-wave sleep” value ([2]; intraperitoneal, N = 7, agent 2 mg/kg, glycine 10 mg/kg, Donormyl 15 mg/kg, control 16.6 ± 2.78) of the same substance?
A: 27.6 ± 3.93 min

Q: What about the “Ratio between the duration of wakefulness and the duration of total recording period” value ([2]; intraperitoneal, N = 7, agent 2 mg/kg, glycine 10 mg/kg, Donormyl 15 mg/kg, control 33.2 ± 2.73) of the same substance?
A: 26.8 ± 3.80 %

Q: And the “Ratio between the duration of slow-wave sleep and the duration of total recording period” value ([2]; intraperitoneal, N = 7, agent 2 mg/kg, glycine 10 mg/kg, Donormyl 15 mg/kg, control 61.6 ± 2.49)?
A: 64.4 ± 4.62%

Q: And the “Duration, wakefulness” value ([2]; intraperitoneal, N = 7, agent 2 mg/kg, glycine 10 mg/kg, Donormyl 15 mg/kg, control 111.5 ± 9.58)?
A: 83.5 ± 10.69 min

Q: What about the “Duration, slow-wave sleep” value ([2]; intraperitoneal, N = 7, agent 2 mg/kg, glycine 10 mg/kg, Donormyl 15 mg/kg, control 206.3 ± 7.47) of the same substance?
A: 205.0 ± 18.17 min

Q: What about the “Latency, slow-wave sleep” value ([2]; intraperitoneal, n = 7, agent 2 mg/kg, glycine 10 mg/kg, Donormyl 15 mg/kg, control 17.0 ± 2.4, time from start of EEG registration to first episode) of the same substance?
A: 12.6 ± 3.4 min

Q: What about the “Latency, fast-wave sleep” value ([2]; intraperitoneal, n = 7, agent 2 mg/kg, glycine 10 mg/kg, Donormyl 15 mg/kg, control 69.0 ± 4.44, time from start of EEG registration to first episode) of the same substance?
A: 55.0 ± 3.51 min
